These are literature values, as cited in publication PMC8951016, “Computational Design and Biological Evaluation of Analogs of Lupin Peptide P5 Endowed with Dual PCSK9/HMG-CoAR Inhibiting Activity” (Pharmaceutics, 2022).

This data set has as its target T1, HMG-CoAR (catalytic domain) (Homo sapiens, UniProt P04035).
T1 construct: finally the HMG-CoAR (cata- lytic domain) (2 µL); purchased Sigma-Aldrich
T1 sequence (P04035 426-888 limits assumed): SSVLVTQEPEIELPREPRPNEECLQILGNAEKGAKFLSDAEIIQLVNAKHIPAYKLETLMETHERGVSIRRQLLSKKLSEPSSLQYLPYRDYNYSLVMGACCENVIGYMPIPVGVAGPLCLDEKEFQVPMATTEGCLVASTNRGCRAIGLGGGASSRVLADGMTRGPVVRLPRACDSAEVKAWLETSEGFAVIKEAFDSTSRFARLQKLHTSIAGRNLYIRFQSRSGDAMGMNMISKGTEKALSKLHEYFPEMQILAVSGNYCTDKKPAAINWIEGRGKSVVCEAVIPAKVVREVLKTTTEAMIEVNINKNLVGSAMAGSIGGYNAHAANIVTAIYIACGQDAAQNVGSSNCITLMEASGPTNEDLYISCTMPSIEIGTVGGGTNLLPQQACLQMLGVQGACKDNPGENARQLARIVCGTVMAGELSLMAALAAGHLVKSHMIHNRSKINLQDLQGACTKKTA
To be noted: read-out: IC50, HMG-CoAR activity (statins); cited from earlier work.

By IC50 is commonly meant the concentration that inhibits the measured activity by half. Consider `CC(C)c1c(C(=O)Nc2ccccc2)c(-c2ccccc2)c(-c2ccc(F)cc2)n1CC[C@@H](O)C[C@@H](O)CC(=O)O` [atorvastatin], for which the IC50 was 8.2 nM.

On to `CC[C@H](C)C(=O)O[C@H]1C[C@H](O)C=C2C=C[C@H](C)[C@H](CC[C@@H](O)C[C@@H](O)CC(=O)O)[C@H]21` [pravastatin], for which the IC50 is 44.1 nM.
